Data as given in ChEMBL document CHEMBL4825694, “Design, synthesis, and biological evaluation of novel sulindac derivatives as partial agonists of PPARγ with potential anti-diabetic efficacy” (Eur J Med Chem, 2021).
Calls of active or inactive are those of the source.

Key:
Mus musculus = test: Antidiabetic activity in high fat diet-induced obese C57/B6 mouse model assessed as reduction in glucose level at 4 mg/kg, measured after 30 days by glucose tolerance test; assay type: functional, organism-based; conditions: time 30.0 day
HepG2 [1] = test: Hypolipidemic activity against palmitic acid-induced hyperlipidemia in human HepG2 cells assessed as increase in insulin-induced Akt Akt Ser473 phosphorylation at 1 uM pretreated for 24 hrs followed by insulin challenge by Western blot analysis; assay type: functional, cell-based
HepG2 [2] = test: Hypolipidemic activity against palmitic acid-induced hyperlipidemia in human HepG2 cells assessed as increase in insulin-induced Akt thr3O8 phosphorylation at 1 uM pretreated for 24 hrs followed by insulin challenge by Western blot analysis; assay type: functional, cell-based
HepG2 [3] = test: Hypolipidemic activity against palmitic acid-induced hyperlipidemia in human HepG2 cells assessed as increase in insulin-induced Akt phosphorylation at 1 uM pretreated for 24 hrs followed by insulin challenge by Western blot analysis; assay type: functional, cell-based
3T3-L1 = test: Induction of adipogenesis in mouse 3T3-L1 cells at 1 uM measured after 48 hrs by oil-O-red staining based inverted microscopic analysis; assay type: functional, cell-based

Measured: Activity

CN(CCOc1ccc(CC2SC(=O)NC2=O)cc1)c1ccccn1 (stereo not given)
active: all assays above
